According to ChEMBL document CHEMBL1142043, “Potent and selective [2-imidazol-1-yl-2-(6-alkoxy-naphthalen-2-yl)-1-methyl-ethyl]-dimethyl-amines as retinoic acid metabolic blocking agents (RAMBAs)” (Bioorg Med Chem Lett, 2005):

Target: T1, Cytochrome P450 26A1 (Homo sapiens, UniProt O43174)
T1 sequence (O43174 whole entry): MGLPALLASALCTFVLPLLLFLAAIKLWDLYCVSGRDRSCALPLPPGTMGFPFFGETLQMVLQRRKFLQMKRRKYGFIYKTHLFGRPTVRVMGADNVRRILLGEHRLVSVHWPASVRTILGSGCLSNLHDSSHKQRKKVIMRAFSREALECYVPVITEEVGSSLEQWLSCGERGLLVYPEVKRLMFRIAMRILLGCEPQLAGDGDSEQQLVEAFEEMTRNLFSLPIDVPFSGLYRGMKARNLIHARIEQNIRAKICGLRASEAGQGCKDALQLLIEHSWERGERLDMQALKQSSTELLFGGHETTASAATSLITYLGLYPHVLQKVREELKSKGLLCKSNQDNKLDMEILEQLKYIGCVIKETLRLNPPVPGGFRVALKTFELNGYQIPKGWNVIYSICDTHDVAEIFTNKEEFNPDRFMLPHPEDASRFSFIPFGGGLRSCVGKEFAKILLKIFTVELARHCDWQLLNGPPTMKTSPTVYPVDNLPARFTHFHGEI
Assay: Potency towards cytochrome P 450 26 enzyme activity

IC50: 6 µM
SMILES: Clc1cccc(C(c2ccc3[nH]cnc3c2)n2ccnc2)c1 (stereo unspecified) [LIAROZOLE]
